“Also recorded” adds a separate entry of the source.
System: CC531 cells
Assay: Release and toxicity: MTT on cells incubated below drug-loaded hydrogel inserts
Conditions: 10 wt % UPy-PEG10k hydrogel, total 1.8 mM

SMILES: CO[C@@]12[C@H](COC(N)=O)C3=C(C(=O)C(C)=C(N)C3=O)N1C[C@@H]1N[C@@H]12 [MMC, Mitomycin C, reference compound]
- Cytotoxicity after release from hydrogel, short term (immediately / first day): high activity towards killing the cells; also recorded: Short term cytotoxicity
- Cytotoxicity after release from hydrogel, long term (after a few days up to 18 days) (gels transferred to freshly seeded cells): effect is diminished

Source: US20200164078A1, “APPLICABLE CHEMICAL COMPOSITION COMPRISING AN AGENT CONJUGATED TO A HYDROPHOBIC MOIETY AND A CARRIER” (TECHNISCHE UNIVERSITEIT EINDHOVEN, priority 2017, published 2020)
